Source: patent US5773423A (priority 1994, dated 1998)

Amino acid sequences for entries named in this document (tags omitted).
UniProt P30543, whole entry: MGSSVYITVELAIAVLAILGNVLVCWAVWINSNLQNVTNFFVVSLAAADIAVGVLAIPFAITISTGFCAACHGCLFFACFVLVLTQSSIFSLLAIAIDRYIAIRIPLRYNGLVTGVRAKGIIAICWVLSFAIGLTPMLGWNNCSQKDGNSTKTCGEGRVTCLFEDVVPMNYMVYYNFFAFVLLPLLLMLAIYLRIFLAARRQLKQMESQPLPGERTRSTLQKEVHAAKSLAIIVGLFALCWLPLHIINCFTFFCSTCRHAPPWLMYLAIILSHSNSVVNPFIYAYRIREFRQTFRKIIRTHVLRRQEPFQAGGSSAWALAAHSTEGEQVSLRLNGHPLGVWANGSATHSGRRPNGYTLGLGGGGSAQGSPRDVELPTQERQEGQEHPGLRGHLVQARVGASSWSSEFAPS
UniProt P25099, whole entry: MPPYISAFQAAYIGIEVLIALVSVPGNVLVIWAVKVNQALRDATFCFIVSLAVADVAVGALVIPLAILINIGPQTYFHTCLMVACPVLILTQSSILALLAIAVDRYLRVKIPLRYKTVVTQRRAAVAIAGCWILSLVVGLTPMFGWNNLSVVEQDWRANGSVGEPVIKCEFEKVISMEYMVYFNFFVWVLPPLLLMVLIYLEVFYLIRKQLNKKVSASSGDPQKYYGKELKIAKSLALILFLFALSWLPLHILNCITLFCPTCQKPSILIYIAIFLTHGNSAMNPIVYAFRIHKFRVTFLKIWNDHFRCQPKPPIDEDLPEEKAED
UniProt P28647, whole entry: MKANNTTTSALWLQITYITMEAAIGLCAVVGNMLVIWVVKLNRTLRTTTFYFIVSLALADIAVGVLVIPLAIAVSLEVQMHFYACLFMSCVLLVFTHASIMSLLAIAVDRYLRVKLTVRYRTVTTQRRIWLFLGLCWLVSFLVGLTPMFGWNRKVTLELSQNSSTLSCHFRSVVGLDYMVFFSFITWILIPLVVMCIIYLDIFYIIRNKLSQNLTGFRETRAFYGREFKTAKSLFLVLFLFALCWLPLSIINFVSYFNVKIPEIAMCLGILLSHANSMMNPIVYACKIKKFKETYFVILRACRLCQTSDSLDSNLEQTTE

Tests used:
[1] = biological target: A2 receptors from rat striatal membranes (Rattus norvegicus, UniProt P30543)
[2] = biological target: T1, A1 receptors from rat brain membranes (Rattus norvegicus, UniProt P25099); assay type: binding; conditions: Table 2, [3H]PIA
T1 construct: Rat cerebral cortical and striatal membranes were prepared; from tissue; host or cells: rat brain (cerebral cortical) membranes

rat A3 receptors = biological target: T2, rat A3 receptors (Rattus norvegicus, UniProt P28647); test: Irreversible inhibition of radioligand binding at rat A3 receptors after preincubation; conditions: CHO cells or RBL-2H3 mast cells
T2 construct: expressed in transfected cells; host or cells: CHO cells, transfected (the IC50); RBL-2H3 rat mast cells (endogenous) also named

Structure (SMILES) | Ki [1] [nM] | Ki [2] [nM] | irreversible inhibition of A3 binding (in words) (rat A3 receptors)
CNC(=O)[C@H]1O[C@@H](n2cnc3c(NCc4cccc(I)c4)nc(Cl)nc32)[C@H](O)[C@@H]1O [Example 44, 2-chloro-N^6-(3-iodobenzyl)-9-[5-(methylamido)-β-D-ribofuranosyl]-adenine] | 470 ± 365 | 820 ± 570 | –
Cn1c(=O)c2[nH]cnc2n(C)c1=O [Compound 103, 1,3-dimethylxanthine, reference compound] | – | – | insensitive to theophylline (1 mM)
